Experiment [1] has as its target T1, DPP-IV activity of Caco-2 cells (Homo sapiens, UniProt P27487).
T1 construct: endogenous in cells; host or cells: Caco-2
Briefly: In situ cell-based DPP-IV inhibition (Gly-Pro-AMC). The conditions noted are these: 1 h at 37 °C, Gly-Pro-AMC 50 µM, mean ± SD (n = 3), read-out: In situ DPP-IV inhibitory activity IC50. On the procedure:
The Caco-2 cells (Cell Bank of Shanghai Academy of Biological Science, Shanghai, China) were incubated at 37 °C in a 5% CO2 environment in DMEM supplemented with 10% FBS and 1% penicillin–streptomycin liquid. Unless otherwise stated below, the cells were cultivated at a density of 5 × 10^4 cells/mL in the culture dishes (Corning Inc., Corning, NY, USA). The cell culture medium was changed every two days, and the cells from passage numbers of 15–25 were used in this study.
Briefly, 2 × 10^4 Caco-2 cells/well cells were seeded in 96-well microplates and cultivated for 24 h. […] Subsequently, 100 µL of the fluorescent substrate Gly-Pro-AMC (50 µM) was added to each well and incubated for 5 min. IPI was used as a positive control. Then, the florescence was monitored with excitation and emission wavelengths of 380 nm and 500 nm (Molecular Devices SpectraMax M5, San Jose, CA, USA).

Amino acid sequences for entries named in this document (tags omitted).
UniProt P27487, whole entry: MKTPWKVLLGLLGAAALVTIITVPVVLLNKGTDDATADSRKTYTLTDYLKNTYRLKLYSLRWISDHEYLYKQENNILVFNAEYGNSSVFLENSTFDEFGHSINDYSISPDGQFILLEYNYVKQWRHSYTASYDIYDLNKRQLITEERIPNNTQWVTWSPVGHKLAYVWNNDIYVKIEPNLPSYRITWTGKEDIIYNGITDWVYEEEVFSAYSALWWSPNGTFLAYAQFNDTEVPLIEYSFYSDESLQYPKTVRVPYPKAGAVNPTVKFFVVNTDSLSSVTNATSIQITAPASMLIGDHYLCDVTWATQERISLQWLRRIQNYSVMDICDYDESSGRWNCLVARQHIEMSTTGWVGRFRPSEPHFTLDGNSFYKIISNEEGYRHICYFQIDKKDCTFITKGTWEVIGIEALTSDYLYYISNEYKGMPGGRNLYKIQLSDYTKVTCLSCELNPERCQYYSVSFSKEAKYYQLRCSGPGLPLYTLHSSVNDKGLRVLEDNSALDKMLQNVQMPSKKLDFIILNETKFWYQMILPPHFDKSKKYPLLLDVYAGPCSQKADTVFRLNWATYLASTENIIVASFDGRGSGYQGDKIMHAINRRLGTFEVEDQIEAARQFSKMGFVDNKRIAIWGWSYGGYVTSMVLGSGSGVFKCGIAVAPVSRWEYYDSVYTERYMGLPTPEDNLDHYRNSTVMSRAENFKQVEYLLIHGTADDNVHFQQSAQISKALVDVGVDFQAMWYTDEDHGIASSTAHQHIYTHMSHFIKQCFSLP

The target in experiment [2] is T2, DPP-IV (Homo sapiens, UniProt P27487).
T2 construct: purchased Sigma-Aldrich
Briefly: DPP-IV inhibitory assay (in vitro chemical system, Gly-Pro-pNA). In kind it is biochemical. The conditions noted are these: Gly-Pro-pNA substrate, pH 8, 37 °C, 60 min, mean ± SD. On the procedure: The DPP-IV inhibitory activity of peptides was performed as previously reported with slight modifications. Briefly, peptides were diluted using 100 mM Tris-HCL buffer (pH = 8). Then, 25 μL diluted peptides were mixed with 25 μL of 1.6 mM Gly-Pro-pNA in a 96-well microplate and incubated at 37 °C for 10 min. […] The DPP-IV-inhibition (DI) was calculated with the following equation: DI%=1−AS−ASC/ANR−ANC×100% where AS (sample) is the optical density in the presence of peptide, DPP-IV, and Gly-Pro-pNA; ASC (sample control) is the optical density when DPP-IV is replaced with Tris-HCl buffer (100 mM, pH 8.0); ANR (negative reaction) is the optical density in the presence of only DPP-IV solution and Gly-Pro-pNA; and ANC (negative control) is the optical density in the absence of DPP-IV and peptide.

On to `CC[C@H](C)[C@H](N)C(=O)N1CCC[C@H]1C(=O)N[C@H](C(=O)O)[C@@H](C)CC` [Peptide P19, diprotin A], for which the IC50 came to 10.8 ± 2.72 µM in experiment [1] and 9.28 ± 0.52 µM in experiment [2].

These data come from PMC11049645, “Mechanistic Study of Novel Dipeptidyl Peptidase IV Inhibitory Peptides from Goat’s Milk Based on Peptidomics and In Silico Analysis” (Foods, 2024).
